# Bioassay records from PubChem.
# miR-21 reporter: miR-21 reporter, rising signal | HeLa miR-21 FLuc reporter, luciferase, 48 h | Potency, µM (doses to about 38.3 µM) | 340,000 tested, under 10 active | AID 2288; active = well fitted rising curve with a large enough effect; inconclusive = small, poorly fitted or top-dose-only effect; inactive = no such curve, though single readings can be large or run the other way;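 note: miR-21 action dims this reporter so a rising signal means less miR-21 action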
#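 Using DMEM plus 10% FBS, HeLa miR-21-FLuc cells are incubated with test compounds (final up to about 40uM) for 48 hours; firefly luciferase signal is then imaged following reagent-mediated lysis.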
# uPA generation: inhibitors of cell surface uPA generation; cell surface uPA generation assay, qHTS; Potency, µM (highest dose often 38.3 µM), most hits filed as inhibitors; actives 0.31% (n = 330,000); AID 540303; active = well fitted inhibition curve with a large enough effect; inconclusive = small, poorly fitted or top-dose-only effect; inactive = no such curve, though single readings can be large or run the other way; tested in mouse RAW 264.7 cells; also: nearly all actives have a fitted effect of over 55% in size
# DT40 TDP1 no CPT: qHTS for Inhibitors of human tyrosyl-DNA phosphodiesterase 1 (TDP1): qHTS in cells in absence of CPT; DT40 Tdp1-/- hTDP1 cells, no CPT, ATP luminescence, 48 h; Potency, µM (top dose mostly 46.2 µM), most hits filed as inhibitors; actives 15% (n = 420,000); AID 686978, 2013; also: nearly all actives have a fitted effect of over 55% in size
#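 Readout: luminescence from CellTiter-Glo after 30 min in the dark at RT. Cells: DT40 Tdp1-/- with stable hTDP1, 400/well. Exposure: compounds alone, ≥48 hr, 37 °C.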
# TDP1 block: blocks human tyrosyl-DNA phosphodiesterase 1. Q9NUW8. recombinant TDP1, AlphaScreen DNA substrate cleavage. Potency, µM (titrated, usually from 130 µM), hits mostly inhibitors. actives 0.28% (n = 350,000). AID 485290; also: nearly all actives have a fitted effect of over 40% in size
#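 E. coli-derived human Tdp1, 1 nM final. Cpd preinc 15 min RT; substrate 15 nM final, 5 min RT; AS bead mix 10 ug/ml final, 10 min RT. Signal loss = tyrosine-FITC cleavage. No-enzyme wells = max signal.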
# TDP1 cell CPT: DT40-hTDP1 cell growth loss with CPT; chicken DT40 Tdp1-/-;hTDP1 cells + 20 nM CPT, ATP luminescence, 48 h; Potency, µM (titrated, usually from 46.2 µM), actives largely listed as inhibitors; actives 12% (n = 420,000); AID 686979; also: nearly all actives have a fitted effect of over 55% in size
#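 Cell growth measured by CellTiter-Glo luminescence after a minimum 48 h, 37 C compound exposure with 20 nM CPT in Tdp1-knockout DT40 cells stably expressing hTDP1, seeded 400/well; qHTS titration format.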
# Numbers stand for hits; n = inactive; u = inconclusive; x = no result given. This is a sample that favours compounds with a hit; in the whole collection about 16% have one here. Unless noted, calls follow the shape of the dose curve; as a rule, active = well fitted curve in the direction sought with a large enough effect; inconclusive = small, poorly fitted or top-dose-only effect, or another doubt; inactive = no such curve, though single readings can be large; an effect the other way counts as inactive or inconclusive.
SMILES,miR-21 reporter,uPA generation,DT40 TDP1 no CPT,TDP1 block,TDP1 cell CPT
CCN(Cc1nc2cc(Cl)ccc2c(=O)[nH]1)C(=O)c1cccc(NC(=O)c2cccs2)c1,x,n,u,n,u
CCN(Cc1nc2ccccc2c(=O)[nH]1)C(=O)c1cc(C2CC2)nn1-c1ccccc1,x,n,u,n,u
CCN(C(=O)COC(=O)c1cccnc1Nc1ccccc1F)C1CCS(=O)(=O)C1 (stereo not drawn),n,n,n,n,n
Cc1ccc(C(=O)NNC(=S)NC(=O)c2ccc(Cl)cc2)cc1,n,x,u,n,16µM
CCC(=O)NNC(=S)NC(=O)c1ccc(C)cc1,n,x,10µM,n,u
CCCCCC(=O)NC(=S)NNC(=O)CC,n,n,u,n,16µM
O=C(CCc1ccccc1)NNC(=S)NCc1ccc(Cl)cc1,n,n,n,n,u
O=C(CCc1ccccc1)NNC(=S)NC(=O)c1ccc(Cl)cc1,n,n,23µM,n,u
CC(=O)NNC(=S)NC(=O)c1ccc(C)cc1,n,n,n,x,n
COCCSc1nnc(NC(=O)c2ccc(NC(=O)C(C)C)cc2)s1,n,n,n,n,n
CC(C)C[C@H](NC(=O)N1CCn2c1nc1ccccc12)C(=O)NCc1ccco1,n,n,n,n,n
O=C(Nc1ccc2nc(SCC(=O)N3CCc4ccccc43)sc2c1)c1ccccc1,n,x,2.3µM,n,5.8µM
O=C(Nc1nnc(SCC(=O)N2CCCc3ccccc32)s1)c1ccc2ccccc2c1,n,n,u,n,n
COc1ccc(C(=O)Nc2ccc3nc(SCC(=O)N4CCCc5ccccc54)sc3c2)cc1,n,x,18µM,n,9.2µM
O=C(Nc1nnc(SCC(=O)N2CCCc3ccccc32)s1)c1ccccc1,n,n,n,n,n
Cc1ccc(C(=O)Nc2ccc3nc(SCC(=O)N4CCCc5ccccc54)sc3c2)cc1,n,x,7.3µM,n,12µM
CC(=O)Nc1nnc(SCC(=O)N2CCCc3ccccc32)s1,n,n,n,n,n
O=C(Nc1ccc2nc(SCC(=O)N3CCCc4ccccc43)sc2c1)c1ccccc1,n,x,18µM,n,21µM
COc1ccc2c(c1)c1c(c(=O)n(-c3cccc(C)c3)c(=O)n1CC(=O)NCCC1=CCCCC1)n2C,n,x,n,n,n
Cc1cc(=O)oc2c(C)c(OCC(=O)NC3CC(C)(C)NC(C)(C)C3)ccc12,n,n,n,n,n
Cc1ccc(S(=O)(=O)N2CCN(C(=O)COc3ccc(C)nc3[N+](=O)[O-])CC2)c(C)c1,n,n,u,n,n
NNc1ccccc1C(F)(F)F,n,n,n,50µM,n
COC(=O)Nc1nc(-c2cc(Cl)ccc2Cl)cs1,n,n,n,n,n
CCOC(=O)c1ccccc1NC1c2ccccc2C(=O)N1c1cc(C)ccn1 (stereo not drawn),n,n,u,n,23µM
COc1cc(OC)c(NC2c3ccccc3C(=O)N2c2cc(C)ccn2)cc1Cl (stereo not drawn),n,n,u,n,n
SMILES,miR-21 reporter,uPA generation,DT40 TDP1 no CPT,TDP1 block,TDP1 cell CPT
COc1ccc(C(=O)/C=C/c2cn(CC(O)CN3CCN(C)CC3)c3ccccc23)cc1OC (stereo not drawn),n,n,u,n,u
CCCCN(C)CC(O)Cn1cc(/C=C/C(=O)c2ccc(Br)cc2)c2ccccc21 (stereo not drawn),u,x,5.2µM,n,6.5µM
CCCCN(C)CC(O)Cn1cc(/C=C/C(=O)c2ccc(OC)c(OC)c2)c2ccccc21 (stereo not drawn),u,x,21µM,n,18µM
CCCCN(C)CC(O)Cn1cc(/C=C/C(=O)c2ccc(C)cc2)c2ccccc21 (stereo not drawn),u,n,9.2µM,n,7.3µM
CN1CCN(Cn2cc(/C=C/C(=O)c3ccccc3)c3ccccc32)CC1,n,n,u,n,n
N#CCCn1cc(C(CC(=O)c2ccc(Br)cc2)C(=O)O)c2ccccc21 (stereo not drawn),n,n,n,n,n
O=C(c1ccc(C(F)(F)F)cc1)C1CCCN(C(=O)CCc2cnccn2)C1 (stereo not drawn),n,n,n,n,n
O=C(Cn1ncc2c3ccccc3n(Cc3ccc(F)cc3)c2c1=O)NCc1cccs1,n,x,n,n,n
CCC(Cc1ccccc1)NC(=O)Cn1ncc2c3ccccc3n(Cc3ccc(F)cc3)c2c1=O (stereo not drawn),n,x,8.2µM,n,8.2µM
COC(=O)Cn1ncc2c3ccccc3n(Cc3ccccc3)c2c1=O,n,n,n,n,u
CCC(Cc1ccccc1)NC(=O)Cn1ncc2c3ccccc3n(Cc3ccccc3)c2c1=O (stereo not drawn),n,x,16µM,n,16µM
Cc1cc(C(=O)CSc2nnnn2C)c(C)n1CCc1ccc(F)cc1,n,n,n,n,n
Cc1cc(C(=O)CSc2nnc(N)s2)c(C)n1CCc1ccc(F)cc1,n,n,n,n,u
Cc1cc(C(=O)CSc2nnc(N)s2)c(C)n1CCc1ccc(Cl)cc1,n,n,u,n,9.2µM
Cc1cc(C(=O)CCl)c(C)n1CCc1ccc(Cl)cc1,n,n,3.7µM,n,n
COc1ccc(CCn2c(C)cc(C(=O)CCl)c2C)cc1OC,n,8.9µM,5.2µM,n,6.5µM
Cc1ccc(C2=NN(CC(=O)O)C(=O)CC2)cc1,n,n,n,x,n
CCn1ccc2c(OCC(=O)NCCc3ccc(OC)c(OC)c3)cccc2c1=O,x,n,u,n,n
CCOc1cc(/C=C2\N=C(C)OC2=O)cc(Cl)c1OCC(=O)OC,x,n,u,x,u
CCCCOc1c(Br)cc(/C=C2\N=C(C)OC2=O)cc1OCC,n,n,u,n,13µM
O=C(CSc1nc2ccccc2o1)N1c2ccccc2Sc2ccc(C(F)(F)F)cc21,n,n,21µM,n,u
Cc1ccc2cc(/C=N/NC(=O)c3ccccc3O)c(Cl)nc2c1,n,n,u,n,u
C#Cc1ccc([C@@H]2C=C(C(=O)NCc3ccccc3)O[C@H](OCCCCO)C2)cc1,x,n,n,x,n
Cc1cccc(OCC(=O)Nc2ccccc2C(=O)N2CCOCC2)c1,n,n,n,n,n
CC(NC(=O)CCC(=O)c1ccc(F)cc1)C1CC2CCC1C2 (stereo not drawn),n,n,u,n,n
Cc1ccc(C(=O)NCC(c2ccc(F)cc2)N2CCOCC2)cc1 (stereo not drawn),n,n,n,x,n
O=C(NCc1ccc(Cl)cc1)C(=O)NCC(c1ccc2c(c1)OCO2)N1CCOCC1 (stereo not drawn),n,x,u,n,u
Cc1ccc2c(C)c(C(=O)NCC(c3ccc(Cl)cc3)N3CCOCC3)oc2c1 (stereo not drawn),n,x,12µM,n,15µM
